According to patent US20110293593A1, “SIVA 2 STABILIZATION” (YEDA RESEARCH AND DEVELOPMENT CO., LTD., priority 2008, published 2011):

Tests used:
SIVA2 = SIVA2 protein level in PBMCs, western blotting with anti-SIVA antibody; assay type: cell-based, human; settings: resting PBMCs, ligands for 8 h
Protocol: (§1) (A) Expression of SIVA1 and SIVA2 in various cell lines. For each cell line, cellular protein (30 μg) was resolved by 13.5% SDS-PAGE and probed with anti-SIVA antibody. The two lanes at the right show SIVA1 and SIVA2 overexpressed in HEK-293T cells (for each protein, 2 μg cDNA/well in 6-well plates). (B) Several SIVA isoforms are expressed in PBMCs. […] (C) Ligand activation increases the amount of SIVA2 in resting PBMCs. Cells (2×10^6) were treated with the indicated ligands for 8 h and the cell lysates were analyzed by western blotting. […] The cells were stimulated with PHA (1 μg/ml) for 48 h, washed twice with phosphate-buffered saline, and incubated for an additional period of 18 h without PHA. […] Semi-quantitative RT-PCR for SIVA message was performed as described in Methods. […] Total-cell lysates were analyzed by western blotting using anti-SIVA antibody. TNF-induced SIVA2 stabilization was assessed in EcR-293-CD27 cells. […] Total-cell lysates were analyzed by western blotting using LDH as the loading control (bottom panel). […] HEK-293T cells were transfected with FLAG-SIVA2 and analyzed 24 h after transfection. […] Cells lysates were analyzed by western blotting using anti-SIVA antibody. Middle: HepG2 cells were exposed to UVC (20 J/m^2) and levels of SIVA proteins were determined after 18 h of treatment. […]

SIVA1 = SIVA1 protein level in PBMCs, western blotting with anti-SIVA antibody; assay type: cell-based, human; settings: resting PBMCs, ligands for 8 h
Protocol: as §1

“TNF: Tumor necrosis factor, applied to cells at 100 ng/ml” was tested, and the SIVA2 expression (SIVA2) was “extensive enhancement” and the SIVA1 expression (SIVA1) was “did not affect”.
